In ChEMBL document CHEMBL4665871, “Small-molecule active pharmaceutical ingredients of approved cancer therapeutics inhibit human aspartate/asparagine-β-hydroxylase” (Bioorg Med Chem, 2020):

What was measured:
[1] = target: T1, Aspartyl/asparaginyl beta-hydroxylase (Homo sapiens) (UniProt Q12797)
T1 sequence (whole entry): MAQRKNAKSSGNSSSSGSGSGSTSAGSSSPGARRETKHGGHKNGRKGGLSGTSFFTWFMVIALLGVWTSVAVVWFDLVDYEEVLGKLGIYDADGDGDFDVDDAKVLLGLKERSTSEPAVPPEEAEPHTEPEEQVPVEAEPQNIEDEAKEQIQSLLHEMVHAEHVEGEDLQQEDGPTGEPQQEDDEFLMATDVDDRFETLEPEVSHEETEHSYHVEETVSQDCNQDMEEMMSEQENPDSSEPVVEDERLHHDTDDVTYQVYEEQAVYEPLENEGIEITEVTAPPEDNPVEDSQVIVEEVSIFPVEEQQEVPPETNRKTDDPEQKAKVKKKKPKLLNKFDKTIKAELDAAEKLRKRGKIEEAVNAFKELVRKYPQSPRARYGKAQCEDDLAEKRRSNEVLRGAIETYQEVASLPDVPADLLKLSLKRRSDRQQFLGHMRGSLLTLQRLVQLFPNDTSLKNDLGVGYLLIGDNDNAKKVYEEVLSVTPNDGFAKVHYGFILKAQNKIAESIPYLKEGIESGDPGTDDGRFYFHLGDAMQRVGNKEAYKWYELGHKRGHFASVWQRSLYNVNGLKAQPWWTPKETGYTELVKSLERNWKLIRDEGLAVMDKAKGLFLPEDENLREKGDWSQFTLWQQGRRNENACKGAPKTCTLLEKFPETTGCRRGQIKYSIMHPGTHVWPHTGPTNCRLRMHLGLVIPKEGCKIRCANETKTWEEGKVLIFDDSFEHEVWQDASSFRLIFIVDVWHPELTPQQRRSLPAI

[2] = target: Aspartyl/asparaginyl beta-hydroxylase (Homo sapiens) (UniProt Q12797); remark: listed apart in the source

Row | Compound | Tm [1] [°C] | Tm [2] [°C]
1 | CO[C@H](C(=O)[C@@H](O)[C@@H](C)O)[C@@H]1Cc2cc3cc(O[C@H]4C[C@@H](O[C@H]5C[C@@H](O)[C@H](O)[C@@H](C)O5)[C@H](O)[C@@H](C)O4)c(C)c(O)c3c(O)c2C(=O)[C@H]1O[C@H]1C[C@@H](O[C@H]2C[C@@H](O[C@H]3C[C@](C)(O)[C@H](O)[C@@H](C)O3)[C@@H](O)[C@@H](C)O2)[C@H](O)[C@@H](C)O1 | 0.4 | 
2 | BLEOMYCIN |  | -0.8
